Experimental data as given in ChEMBL document CHEMBL3039007, “Structure-based identification of OATP1B1/3 inhibitors” (Mol Pharmacol, 2013).

Amino acid sequences for entries named in this document (tags omitted). A change or cut given only in a name is not applied to a line headed by its entry.
UniProt Q9Y6L6: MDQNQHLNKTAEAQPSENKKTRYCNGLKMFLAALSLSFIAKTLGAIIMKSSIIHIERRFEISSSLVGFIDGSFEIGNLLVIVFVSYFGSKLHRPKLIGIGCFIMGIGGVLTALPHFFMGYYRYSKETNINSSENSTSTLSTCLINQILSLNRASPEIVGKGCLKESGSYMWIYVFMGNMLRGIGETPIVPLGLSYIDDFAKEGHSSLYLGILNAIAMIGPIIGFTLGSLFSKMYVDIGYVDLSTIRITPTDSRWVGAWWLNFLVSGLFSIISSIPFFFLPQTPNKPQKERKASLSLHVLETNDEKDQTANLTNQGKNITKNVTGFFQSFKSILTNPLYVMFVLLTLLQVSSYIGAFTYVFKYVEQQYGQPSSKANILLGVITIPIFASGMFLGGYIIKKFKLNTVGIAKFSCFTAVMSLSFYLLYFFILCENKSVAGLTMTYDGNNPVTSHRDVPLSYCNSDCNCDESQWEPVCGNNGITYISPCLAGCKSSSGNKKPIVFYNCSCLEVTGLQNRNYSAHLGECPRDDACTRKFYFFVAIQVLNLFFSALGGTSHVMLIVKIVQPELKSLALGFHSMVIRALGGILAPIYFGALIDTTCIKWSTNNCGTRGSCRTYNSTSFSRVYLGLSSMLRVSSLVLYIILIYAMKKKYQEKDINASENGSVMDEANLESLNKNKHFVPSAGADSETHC

Biological target: Solute carrier organic anion transporter family member 1B1 (Homo sapiens, UniProt Q9Y6L6)

CC1(C)[C@@H](OC(=O)CCC(=O)O)CC[C@]2(C)[C@H]3C(=O)C=C4[C@@H]5C[C@@](C)(C(=O)O)CC[C@]5(C)CC[C@@]4(C)[C@]3(C)CC[C@@H]12 [CARBENOXOLONE SODIUM] gave a Ki of 1070 nM.
